Measured values: PMC4920374 (Bioorganic & medicinal chemistry, 2016)

What follows are compounds tested on KB-vin (vincristine-resistant KB subline) (assay: Antiproliferative SRB assay, KB-vin). Details: not given.
Assay type: cell-based, human

| SMILES | GI50 KB-vin [µM] |
| --- | --- |
| COc1ccc(Nc2nc(NC3CC3)c3ccccc3n2)cc1 [4f, 4-(N-cyclopropyl)amino-2-(4-methoxyphenyl)aminoquinazoline] | 13.4 |
| COc1ccc(Nc2nc(NC3CCCC3)c3ccccc3n2)cc1 [4a, 4-(N-Cyclopentyl)amino-2-(4-methoxyphenyl)aminoquinazoline] | 12.6 |
| Oc1ccc(Nc2nc(NC3CCCC3)c3ccccc3n2)cc1 [6d, 4-(N-Cyclopentyl)amino-2-(4-hydroxyphenyl)aminoquinazoline] | 13.6 |
| O=C(O)c1ccc(Nc2nc(NC3CCCC3)c3ccccc3n2)cc1 [6e, 2-(4-Carboxyphenyl)amino-4-(N-cyclopentyl)aminoquinazoline] | 19.8 |
| CNc1nc(N(C)c2ccc(OC)cc2)nc2ccccc12 [5d, 2-(N-(4-Methoxyphenyl)-N-methyl)amino-4-methylaminoquinazoline] | 22.9 |
| CCCNc1nc(Nc2ccc(OC)cc2)nc2ccccc12 [4c, 2-(4-Methoxyphenyl)amino-4-propylaminoquinazoline] | 5.09 |
| Fc1ccc(Nc2nc(NC3CCCC3)c3ccccc3n2)cc1 [6c, 4-(N-Cyclopentyl)amino-2-(4-fluorophenyl)aminoquinazoline] | 12.3 |
| CNc1nc(Nc2ccc(OC)cc2)nc2ccccc12 [4d, 2-(4-Methoxyphenyl)amino-4-methylaminoquinazoline] | 17.5 |
| COc1ccc(N(C)c2nc(NCCCO)c3ccccc3n2)cc1 [5b] | 30.8 |
| N#Cc1ccc(Nc2nc(NCCCO)c3ccccc3n2)cc1 [7a, 2-(4-Cyanophenyl)amino-4-((3-hydroxypropyl)amino)quinazoline] | 4.31 |
| Nc1ccc(Nc2nc(NC3CCCC3)c3ccccc3n2)cc1 [6b, 2-(4-Aminophenyl)amino-4-(N-cyclopentyl)aminoquinazoline] | 21.7 |
| CCCNc1nc(Nc2ccc(F)cc2)nc2ccccc12 [7d, 4-Propylamino-2-(4-fluorophenyl)aminoquinazoline] | 2.5 |
| COc1ccc(Nc2nc(NCCCO)c3ccccc3n2)cc1 [4b, 4-(3-Hydroxypropyl)amino-2-(4-methoxyphenyl)aminoquinazoline] | 17.1 |
| COc1ccc(Nc2nc(N3CCOCC3)c3ccccc3n2)cc1 [4e, 2-(4-Methoxyphenyl)amino-4-(N-morpholino)quinazoline] | 15.3 |

What follows are compounds tested on KB (epidermoid carcinoma of the nasopharynx) (assay: Antiproliferative SRB assay, KB). Details: not given.
Assay type: cell-based, human

| SMILES | GI50 KB [µM] |
| --- | --- |
| COc1ccc(Nc2nc(NC3CC3)c3ccccc3n2)cc1 [4f, 4-(N-cyclopropyl)amino-2-(4-methoxyphenyl)aminoquinazoline] | 13.3 |
| COc1ccc(Nc2nc(NC3CCCC3)c3ccccc3n2)cc1 [4a, 4-(N-Cyclopentyl)amino-2-(4-methoxyphenyl)aminoquinazoline] | 11.1 |
| Oc1ccc(Nc2nc(NC3CCCC3)c3ccccc3n2)cc1 [6d, 4-(N-Cyclopentyl)amino-2-(4-hydroxyphenyl)aminoquinazoline] | 12.1 |
| O=C(O)c1ccc(Nc2nc(NC3CCCC3)c3ccccc3n2)cc1 [6e, 2-(4-Carboxyphenyl)amino-4-(N-cyclopentyl)aminoquinazoline] | 25.2 |
| CNc1nc(N(C)c2ccc(OC)cc2)nc2ccccc12 [5d, 2-(N-(4-Methoxyphenyl)-N-methyl)amino-4-methylaminoquinazoline] | 18.7 |
| CCCNc1nc(Nc2ccc(OC)cc2)nc2ccccc12 [4c, 2-(4-Methoxyphenyl)amino-4-propylaminoquinazoline] | 5.33 |
| Fc1ccc(Nc2nc(NC3CCCC3)c3ccccc3n2)cc1 [6c, 4-(N-Cyclopentyl)amino-2-(4-fluorophenyl)aminoquinazoline] | 13.8 |
| CNc1nc(Nc2ccc(OC)cc2)nc2ccccc12 [4d, 2-(4-Methoxyphenyl)amino-4-methylaminoquinazoline] | 14.8 |
| CCCNc1nc(N(C)c2ccc(OC)cc2)nc2ccccc12 [5c, 2-(N-(4-Methoxyphenyl)-N-methyl)amino-4-propylaminoquinazoline] | 13.7 |
| COc1ccc(N(C)c2nc(NC3CCCC3)c3ccccc3n2)cc1 [5a, 4-(N-Cyclopentyl)amino-2-(N-(4-methoxyphenyl)-N-methyl)aminoquinazoline] | 11.7 |
| COc1ccc(N(C)c2nc(NCCCO)c3ccccc3n2)cc1 [5b] | 24.8 |
| N#Cc1ccc(Nc2nc(NCCCO)c3ccccc3n2)cc1 [7a, 2-(4-Cyanophenyl)amino-4-((3-hydroxypropyl)amino)quinazoline] | 23.7 |
| Nc1ccc(Nc2nc(NC3CCCC3)c3ccccc3n2)cc1 [6b, 2-(4-Aminophenyl)amino-4-(N-cyclopentyl)aminoquinazoline] | 17.4 |
| CCCNc1nc(Nc2ccc(F)cc2)nc2ccccc12 [7d, 4-Propylamino-2-(4-fluorophenyl)aminoquinazoline] | 2.9 |
| COc1ccc(Nc2nc(NCCCO)c3ccccc3n2)cc1 [4b, 4-(3-Hydroxypropyl)amino-2-(4-methoxyphenyl)aminoquinazoline] | 20.3 |
| COc1ccc(Nc2nc(N3CCOCC3)c3ccccc3n2)cc1 [4e, 2-(4-Methoxyphenyl)amino-4-(N-morpholino)quinazoline] | 21.0 |

Each compound was assayed on HTCL panel: A549, KB, KB-vin, DU145 (assay: cells). Details: Homo sapiens, read-out: GI50 across HTCL panel.

| SMILES | GI50 [µM] |
| --- | --- |
| CCCNc1nc(Nc2ccc(F)cc2)nc2ccccc12 [7d, 4-Propylamino-2-(4-fluorophenyl)aminoquinazoline] | 2.5 to 4.3 |
| COc1ccc(Nc2nc(NCCCO)c3ccccc3n2)cc1 [4b, 4-(3-Hydroxypropyl)amino-2-(4-methoxyphenyl)aminoquinazoline] | < 20 |
